Data from patent publication US20110212091.

System: FGFR4 R388, V5-His tagged (FGFR4R388-V5-His)

HA-tagged MT1-MMP
FGFR4 R388 phosphorylation: markedly enhanced
